Experimental fraction unbound values from OPERA 2.9

Data: OPERA 2.9 data sets, kmansouri/OPERA on GitHub.

fu is the fraction unbound in human plasma, from 0 to 1.
Cells with "n/a" have no entry in this list.

| SMILES | name | plasma fu |
|---|---|---|
| FC(C(F)(F)F)C(F)(F)F | 2h-perfluoropropane | 0.4582 |
| Cc1ccnc(NS(=O)(=O)c2ccc(N)cc2)n1 | Sulfamerazine | 0.15 |
| CC1(C)S[C@@H]2[C@H](NC(=O)[C@H](NC(=O)N3CCN(S(C)(=O)=O)C3=O)c3ccccc3)C(=O)N2[C@H]1C(=O)O | Mezlocillin | 0.695 |
| CCOc1ccc2nc(S(N)(=O)=O)sc2c1 | Ethoxzolamide | 0.11 |
| CCC1OC=CC(=O)C=1O | n/a | 0.606 |
| COC(=O)[C@H](c1ccccc1Cl)N1CCc2sccc2C1 | Clopidogrel | 0.01649 |
| NS(=O)(=O)c1cc2c(cc1C(F)(F)F)NC(Cc1ccccc1)NS2(=O)=O (stereo not given) | Bendroflumethiazide | 0.06 |
| CCCCNC(=N)NC(=N)N | Buformin | 0.9 |
| CC(C)(C)CC(C)(C)c1ccc(O)c(-n2nc3ccccc3n2)c1 | Octrizole | 0.01115 |
| CCC(=O)NCCC1CCc2ccc3c(c21)CCO3 (stereo not given) | Ramelteon | 0.18 |
| CN(C)CCCN1c2ccccc2Sc2ccccc21 | Promazine | 0.1054 |
| CN(C)CCc1c[nH]c2ccc(CS(=O)(=O)N3CCCC3)cc12 | Almotriptan | 0.6133 |
| C1CCC(C(CC2CCCCN2)C2CCCCC2)CC1 (stereo not given) | Perhexiline | 0.0395 |
| C=Cc1ccccc1 | Styrene | 0.1801 |
| NC(=O)Cc1cccc(C(=O)c2ccccc2)c1N | Nepafenac | 0.009 |
| CC(=O)N=c1sc(S(N)(=O)=O)nn1C | Methazolamide | 0.45 |
| Cc1[n]c([s]c1CC(O)=O)SCC1CS[C@@H]2[C@H](NC(=O)/C(=NOC)/c3c[s]c(N)[n]3)C(=O)N2C=1C(O)=O | n/a | 0.1825 |
| Nc1ccc(C(=O)O)c(O)c1 | Aminosalicylic acid | 0.38 |
| NC(=O)N1c2ccccc2CC(=O)c2ccccc21 | Oxcarbazepine | 0.55 |
| COCC(=O)O[C@]1(CCN(C)CCCc2nc3ccccc3[nH]2)CCc2cc(F)ccc2[C@@H]1C(C)C | Mibefradil | 0.00625 |
| Cc1ccc(C(C)(C)C)c(O)c1 | 2-tert-butyl-5-methylphenol | 0.0264 |
| C=C1[C@H](CO)[C@@H](O)C[C@@H]1n1cnc2c(=O)[nH]c(N)nc21 | Entecavir | 0.87 |
| CC(=O)Nc1c(I)c(C(=O)O)c(I)c(N(C)C(C)=O)c1I | Metrizoic acid | 1 |
| CNCCCC12CCC(c3ccccc31)c1ccccc12 | Maprotiline | 0.1165 |
| C=CCc1ccc(O)c(OC)c1 | Eugenol | 0.1922 |
| O=C1[C@@H]2[C@H]3CC[C@H](C3)[C@@H]2C(=O)N1CCCCN1CCN(c2ncccn2)CC1 | Tandospirone | 0.7 |
| CC[C@]1(O)C[C@H]2C[N@](CCc3c([nH]c4ccccc34)[C@@](C(=O)OC)(c3cc4c(cc3OC)N(C)[C@H]3[C@@](O)(C(N)=O)[C@H](O)[C@]5(CC)C=CCN6CC[C@]43[C@@H]65)C2)C1 | Vindesine | 0.3 |
| Clc1ccc(COC(Cn2ccnc2)c2ccc(Cl)cc2Cl)cc1.O=[N+]([O-])O (stereo not given) | Econazole nitrate | 0.00553 |
| c1ccc2ncccc2c1 | Quinoline | 0.2036 |
| Sc1nc2ccccc2s1 | 2-mercaptobenzothiazole | 0.02813 |
| CC1(C)S[C@@H]2[C@H](NC(=O)[C@@H](NC(=O)N3CCNC3=O)c3ccccc3)C(=O)N2[C@H]1C(=O)O | Azlocillin | 0.665 |
| Oc1ccc2c(c1)-c1ccccc1C2 | 3-Hydroxyfluorene | 0.02488 |
| O=P(O)(O)OC(Cn1cncn1)(Cn1cncn1)c1ccc(F)cc1F | Fosfluconazole | 0.04167 |
| CN(C)c1cccc(O)c1 | 3-dimethylaminophenol | 0.242 |
| CC(C)O | Isopropanol | 0.9214 |
| CC(=O)OCC(=O)[C@@]1(O)CC[C@H]2[C@@H]3CCC4=CC(=O)CC[C@]4(C)[C@H]3C(=O)C[C@@]21C | Cortisone acetate | 0.05 |
| c1ccc2c(c1)-c1cccc3c1c-2cc1ccccc13 | Benzo(b)fluoranthene | 0.01059 |
| Cc1ccc(N)cc1O | 5-amino-2-methylphenol | 0.604 |
| O=C(c1ccc(O)cc1)c1ccc(O)cc1O | 2,4,4'-trihydroxybenzophenone | 0.0196 |
| CCCCCCCCCCCC(=O)OC | Methyl dodecanoate | 0.03637 |
| CCOC(=O)[C@H](CCc1ccccc1)N[C@H]1CCCN2CCC[C@@H](C(=O)O)N2C1=O | Cilazapril | 0.75 |
| C[C@]12C=CC(=O)C=C1C(Cl)=C[C@@H]1[C@@H]2[C@@H](O)C[C@@]2(C)[C@H]1CC[C@]2(O)C(=O)CO | Cloprednol | 0.2 |
| CC1(C)[C@H](NC(=O)/C(=N\OCc2cc(=O)c(O)cn2O)c2csc(N)n2)C(=O)N1OS(=O)(=O)O | n/a | 0.3088 |
| Cc1onc(-c2ccccc2)c1C(=O)N[C@@H]1C(=O)N2[C@@H]1SC(C)(C)[C@@H]2C(=O)O | Oxacillin | 0.07333 |
| CS(=O)(=O)c1ccc([C@@H](O)[C@@H](CF)NC(=O)C(Cl)Cl)cc1 | Florfenicol | 0.7715 |
| C[C@@H](NCCCc1cccc(C(F)(F)F)c1)c1cccc2ccccc12 | Cinacalcet | 0.05 |
| CO[C@H]1O[C@@H]2O[C@@]3(C)CC[C@H]4[C@H](C)CC[C@@H]([C@H]1C)[C@@]24OO3 | Artemether | 0.5 |
| [Cl-].c1ccc(C[n+]2cccc3ccccc32)cc1 | 1-benzylquinolinium chloride | 0.599 |
| COc1ccc2ncc(=O)n(CCN3CC[C@@H](NCc4ccc5c(n4)NC(=O)CO5)[C@H](OC)C3)c2c1 | n/a | 0.2242 |
| CC(CN(C)C)CN1c2ccccc2Sc2ccccc21 (stereo not given) | Trimeprazine | 0.15 |
| OC(CNCC(O)C1CCc2cc(F)ccc2O1)C1CCc2cc(F)ccc2O1 (stereo not given) | Nebivolol | 0.02 |
| CCOC(=O)c1ccc(N)cc1 | Benzocaine | 0.338 |

A selection of 8 entries from above:

SMILES	name	plasma fu
CCC(=O)NCCC1CCc2ccc3c(c21)CCO3 (stereo not given)	Ramelteon	0.18
Cc1ccc(N)cc1O	5-amino-2-methylphenol	0.604
O=C(c1ccc(O)cc1)c1ccc(O)cc1O	2,4,4'-trihydroxybenzophenone	0.0196
Clc1ccc(COC(Cn2ccnc2)c2ccc(Cl)cc2Cl)cc1.O=[N+]([O-])O (stereo not given)	Econazole nitrate	0.00553
CC1(C)S[C@@H]2[C@H](NC(=O)[C@H](NC(=O)N3CCN(S(C)(=O)=O)C3=O)c3ccccc3)C(=O)N2[C@H]1C(=O)O	Mezlocillin	0.695
C=C1[C@H](CO)[C@@H](O)C[C@@H]1n1cnc2c(=O)[nH]c(N)nc21	Entecavir	0.87
CCC1OC=CC(=O)C=1O	n/a	0.606
[Cl-].c1ccc(C[n+]2cccc3ccccc32)cc1	1-benzylquinolinium chloride	0.599

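OPERA's authors assembled the values from existing databases and did not measure them anew. The files give a single number for a compound and property, which may rest on several reports. Method, purity and exact conditions of the single measurements are not given. Where a salt, mixture or single isomer is drawn, the source does not say that exactly this form was tested. Some entries may be limits or estimates that an upstream database listed as plain numbers.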